# Experimental data published in PubChem BioAssay AID2550 (Johns Hopkins Ion Channel Center, 2010).
# Amino acid sequences for entries named in this document (tags omitted).
# UniProt Q61143, whole entry: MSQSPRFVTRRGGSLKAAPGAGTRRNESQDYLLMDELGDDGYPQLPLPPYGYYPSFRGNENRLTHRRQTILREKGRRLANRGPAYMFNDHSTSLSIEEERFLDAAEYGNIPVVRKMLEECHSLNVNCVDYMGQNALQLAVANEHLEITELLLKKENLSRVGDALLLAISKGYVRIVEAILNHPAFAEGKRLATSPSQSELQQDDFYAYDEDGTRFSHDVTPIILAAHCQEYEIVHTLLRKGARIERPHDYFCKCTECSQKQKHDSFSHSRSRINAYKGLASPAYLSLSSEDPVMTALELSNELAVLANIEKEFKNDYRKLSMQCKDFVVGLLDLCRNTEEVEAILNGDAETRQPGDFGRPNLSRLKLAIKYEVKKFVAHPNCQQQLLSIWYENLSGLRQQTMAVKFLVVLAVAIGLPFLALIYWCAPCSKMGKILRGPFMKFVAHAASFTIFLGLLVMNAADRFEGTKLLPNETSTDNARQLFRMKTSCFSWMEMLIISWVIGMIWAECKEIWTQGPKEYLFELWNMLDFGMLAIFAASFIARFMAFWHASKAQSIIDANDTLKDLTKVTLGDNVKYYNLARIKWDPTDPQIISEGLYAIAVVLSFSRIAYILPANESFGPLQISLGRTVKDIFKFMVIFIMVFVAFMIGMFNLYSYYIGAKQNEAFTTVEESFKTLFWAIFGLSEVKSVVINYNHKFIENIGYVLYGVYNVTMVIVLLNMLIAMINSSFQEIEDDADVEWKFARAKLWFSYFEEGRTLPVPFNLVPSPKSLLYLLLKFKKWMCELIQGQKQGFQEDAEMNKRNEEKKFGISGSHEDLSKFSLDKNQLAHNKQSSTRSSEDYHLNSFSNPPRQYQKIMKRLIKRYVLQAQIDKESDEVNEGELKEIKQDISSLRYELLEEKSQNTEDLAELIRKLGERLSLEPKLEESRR
# This is a selection; strong and weak results do not stand in their true shares. Active and inactive are the calls of the source.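 Rule for the calls: active = B-score of the integrated fluorescence ratio above library mean plus 3 SD, and starting fluorescence ratio within library mean plus 5 SD; inactive = the rest.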
# Target: Short transient receptor potential channel 6 (Mus musculus) (UniProt Q61143)
# Test: small molecules opening TRPC6 cation channel – cell-based, HEK293, membrane potential dye, primary screen (AID 2550);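 note: higher score means more depolarization so channel activation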
# Details: HEK293-TRPC6 membrane potential dye fluorescence; at 10 µM
row,SMILES,outcome
1,O=[N+]([O-])c1cc([N+](=O)[O-])c(Nc2ccccn2)c([N+](=O)[O-])c1,inactive
2,CC(C)CC(=O)NC(Sc1ccc(Cl)cc1)C(Cl)(Cl)Cl (centres undefined),inactive
3,CCc1ccc(OP(C)(=O)O)cc1,inactive
4,COc1ccccc1OP(C)(=O)Nc1ccc(C)cc1C (centres undefined),inactive
5,CP(=O)(Nc1ccccn1)Oc1ccccc1 (centres undefined),inactive
6,Cc1c2c(nc3ccccc13)SC(C(Cl)Cl)C2 (centres undefined),inactive
7,Cc1cc(=O)[nH]c(N[N+](=O)[O-])n1,inactive
8,CCN(CC)CCCOC(=O)C(O)(c1ccccc1)c1ccccc1,inactive
9,O=C(OC1CN2CCC1CC2)C12CC3CC(CC(C3)C1)C2 (centres undefined),inactive
10,COc1cc(I)ccc1[As](=O)(O)O,inactive
11,COc1ccc2nc(NP(=O)(c3ccccc3)c3ccccc3)sc2c1,inactive
12,COc1ccc(N/C(=N/P(=O)(N2CCOCC2)N2CCOCC2)N2CCOCC2)cc1,inactive
13,O=[N+]([O-])c1cc([N+](=O)[O-])c(Nc2cccnc2)c([N+](=O)[O-])c1,inactive
14,C[As](=O)(O)c1cccc(C(=O)O)c1,inactive
15,O=[As](O)(c1ccc(O)cc1)c1ccccc1O,inactive
16,Cc1cccc(C)c1OP(C)(N)=O (centres undefined),inactive
17,Cc1ccc(OP(=O)(Nc2ccc([N+](=O)[O-])cn2)Oc2ccc(C)cc2)cc1,inactive
18,CC(C)(C)c1ccc(OP(C)(=O)Nc2ccc(SC(F)(F)F)cc2)cc1 (centres undefined),inactive
19,O=[N+]([O-])c1ccc2c(c1)C=Nc1ccccc1O2,inactive
20,Cc1ccc2nc3c(c(C)c2c1)CC(C(Cl)Cl)S3 (centres undefined),inactive
21,ClCCSc1nnc(-c2cccnc2)o1,inactive
22,CCOC(=O)c1ccc(NP(C)(=O)Oc2ccccc2)cc1 (centres undefined),inactive
23,Cc1ccc(NP(C)(=O)Oc2ccccc2)c(C)c1 (centres undefined),inactive
24,CC(C)c1ccc(OP(=O)(Nc2ccccn2)Oc2ccccc2F)cc1 (centres undefined),inactive

row,SMILES,outcome
1,COc1ccccc1OP(C)(=O)Nc1ccc(C)cc1 (centres undefined),inactive
2,COc1ccc(OP(C)(=O)Nc2cccc(F)c2)cc1 (centres undefined),inactive
3,O=[N+]([O-])c1cc([N+](=O)[O-])c(-c2ccn[nH]2)s1,inactive
4,CC(C)NC(=O)NP(=O)(Oc1ccccc1)Oc1ccccc1,inactive
5,COc1ccccc1OP(C)(=O)Nc1cc(Cl)ccc1C (centres undefined),inactive
6,CCN(CC)C(=S)SC(NC=O)C(Cl)(Cl)Cl (centres undefined),inactive
7,Cc1cc(C)cc(OP(C)(N)=O)c1 (centres undefined),inactive
8,CCOC(=O)Nc1ccc([As](=O)(O)O)c(O)c1,inactive
9,Cc1cc(SC(NC(=O)c2ccccc2)C(Cl)(Cl)Cl)nc(C(C)C)n1 (centres undefined),inactive
10,CCCCOc1ccc(C(=O)NCC2(N3CCCCC3)CCCCC2)cc1OC,inactive
11,CP(=S)(Nn1cnnc1)Oc1ccccc1 (centres undefined),inactive
12,CCOC(=O)Nc1cccc([As](=O)(O)O)c1,inactive
13,COc1ccccc1OP(C)(=O)Nc1ccccc1 (centres undefined),inactive
14,Cc1cc(SC(NC=O)C(Cl)(Cl)Cl)ncn1 (centres undefined),inactive
15,O=P(Nc1ccccn1)(c1cccc2ccccc12)c1cccc2ccccc12,inactive
16,O=[N+]([O-])c1ccc(Nc2ccc(Oc3ccc([N+](=O)[O-])cc3[N+](=O)[O-])cc2)c([N+](=O)[O-])c1,inactive
17,CP(=O)(Nc1ccccc1Br)Oc1ccccc1 (centres undefined),inactive
18,CP(=O)(Oc1ccccc1)OC(c1ccccc1)C(F)(F)F (centres undefined),inactive
19,COP1(=S)c2c(C)nn(CCC#N)c2N=C(c2ccc(F)cc2)N1C (centres undefined),inactive
20,CP(=O)(Nc1ccc(SC(F)(F)F)cc1)Oc1ccc(Cl)cc1 (centres undefined),inactive
21,Cc1cccc(C)c1OP(C)(=O)Nc1ccc(SC(F)(F)F)cc1 (centres undefined),inactive
22,O=C(Nc1ccncc1[N+](=O)[O-])c1ccc([N+](=O)[O-])cc1[N+](=O)[O-],inactive
23,Cc1cc(C)cc(OP(C)(=O)Nc2ccc(SC(F)(F)F)cc2)c1 (centres undefined),inactive
24,CP(=O)(NC(=O)Nc1ccccc1)Oc1ccccc1 (centres undefined),inactive

row,SMILES,outcome
1,O=C(COc1ccccc1)OC1CN2CCC1CC2 (centres undefined),inactive
2,CCc1ccc(OP(C)(=O)N2CCN(c3ccc([N+](=O)[O-])cc3)CC2)cc1 (centres undefined),inactive
3,CCOP(C)(=S)SCC(=O)NC(C)C(=O)O (centres undefined),inactive
4,O=C(OC1CN2CCC1CC2)c1cccc([N+](=O)[O-])c1 (centres undefined),inactive
5,O=[N+]([O-])c1cc([N+](=O)[O-])c(O)c([N+](=O)[O-])c1.c1ccc(Oc2ccncc2)cc1,inactive
6,CCOC(=O)c1ccc(NC(=O)C(C)(CCl)SC)cc1 (centres undefined),inactive
7,CCOC(=O)c1ccc(NP(C)(=O)Oc2ccc(OC)cc2)cc1 (centres undefined),inactive
8,CCC(C)N(CC(C)C)C(=S)SC(NC(C)=O)C(Cl)(Cl)Cl (centres undefined),inactive
9,CP(=O)(Nc1ccccn1)Oc1ccc(Cl)cc1 (centres undefined),inactive
10,O=[N+]([O-])c1cc([N+](=O)[O-])c(-n2nnc3ccccc32)c([N+](=O)[O-])c1,inactive
11,CCOP(=O)(NC(=NC(C)c1ccccc1)NC(C)c1ccccc1)OCC (centres undefined),inactive
12,CCC1=CC2Cc3nc4ccc(Cl)cc4c(N)c3C(C1)C2 (centres undefined),inactive
13,O=P1(Nc2ccccn2)COc2ccccc2OC1,inactive
14,CCOP(=O)(Nc1ccc(C)cn1)OCC,inactive
15,CN(CCCl)Cc1cc(Cl)c(NC2=NCCN2)c(Cl)c1,inactive
16,CC(C)(C)C(=O)NC(Sc1ncccn1)C(Cl)(Cl)Cl (centres undefined),inactive
17,Clc1n[nH]nc1-c1nn[nH][15n]1,inactive
18,O=[N+]([O-])c1cc([N+](=O)[O-])c(-c2cnn(-c3ccccc3)c2)c([N+](=O)[O-])c1,inactive
19,COc1ccccc1CNC(=O)COC(=O)C(O)(c1ccccc1)c1ccccc1,inactive
20,CN(C(=O)Cc1ccc(Cl)c(Cl)c1)[C@@H]1CCCC[C@H]1N1CCCC1,inactive
21,CC(C)/C=N\N=C(\N)N[N+](=O)[O-],inactive
22,CC1(CBr)Cn2c(nc3ccccc3c2=O)S1 (centres undefined),inactive
23,O=[As](O)(c1ccccc1Br)c1ccccc1Br,inactive
24,Cc1ccc(C(=O)OC2CN3CCC2CC3)cc1 (centres undefined),inactive

row,SMILES,outcome
1,CC1CCC(C(C)C)C(OP(=O)(Nc2ccccn2)c2ccccc2)C1 (centres undefined),inactive
2,Cc1nn(-c2ccccc2)c2c1P(=O)(N1CCOCC1)N(C)C(c1ccccc1)=N2 (centres undefined),inactive
3,COc1cc(C2NCCC3(OCCO3)C2(C)C)cc(OC)c1OC.O=[N+]([O-])c1cc([N+](=O)[O-])c(O)c([N+](=O)[O-])c1 (centres undefined),inactive
4,CCOC(=O)C(CC)C1=NC(C)(C)Cc2ccccc21.O=[N+]([O-])c1cc([N+](=O)[O-])c(O)c([N+](=O)[O-])c1 (centres undefined),inactive
5,CN(C)C1(CNC(=O)c2ccc(S(C)(=O)=O)cc2)CCCCC1,inactive
6,O=[N+]([O-])c1cc([N+](=O)[O-])c(Nc2nnnn2CCO)c([N+](=O)[O-])c1,inactive
7,O=C(/C=C/c1ccccc1)OC1CN2CCC1CC2 (centres undefined),inactive
8,CN1CCCCC1COC(=O)C1(O)c2ccccc2CCc2ccccc21 (centres undefined),inactive
9,COc1ccccc1OP(C)(=O)Nc1c(C)cccc1C (centres undefined),inactive
10,O=P1(Nc2ncccn2)COc2ccccc2OC1,inactive
11,CCCOc1ccc(NP(C)(=O)Oc2ccc(Cl)cc2)cc1 (centres undefined),inactive
12,Nc1cccc([As](=O)(O)c2ccccc2)c1,inactive
13,CP(=O)(Nc1ccc(SC(F)(F)F)cc1)Oc1ccccc1 (centres undefined),inactive
14,Cc1ccc(OCC(=O)OC2CN3CCC2CC3)cc1 (centres undefined),inactive
15,O=[As](O)(c1cccs1)c1cccs1,inactive
16,O=P1(Nc2ccc(Br)cn2)COc2ccccc2OC1,inactive
17,O=P(Nc1nccs1)(Oc1ccccc1)Oc1ccccc1,inactive
18,O=P(Nc1nccs1)(c1ccccc1)c1nc2ccccc2s1 (centres undefined),inactive
19,O=C(O)c1cccc(Nc2c([N+](=O)[O-])cc([N+](=O)[O-])cc2[N+](=O)[O-])c1,inactive
20,CCOP1(=S)c2c(C)nn(CCC#N)c2N=C(c2ccccc2F)N1C (centres undefined),inactive
21,CS(=O)(=O)c1cc([N+](=O)[O-])c2no[n+]([O-])c2c1,inactive
22,O=C(O)COc1ccc([As](=O)(O)O)cc1[N+](=O)[O-],inactive
23,Nc1ccccc1[As](=O)(O)c1ccccc1,inactive
24,NC(=O)Nc1ccc([As](=O)(O)O)cc1,inactive

row,SMILES,outcome
1,CN(C(=O)Cc1ccccc1)[C@@H]1CC[C@]2(CCCO2)C[C@H]1N1CCCC1,inactive
2,CCOP1(=S)c2c(C)nn(CCC#N)c2N=C(c2ccc(F)cc2)N1C (centres undefined),inactive
3,N#CCCN(C(=O)COC(=O)C(O)(c1ccccc1)c1ccccc1)c1ccc(F)cc1,inactive
4,CC1=NCCc2c1[nH]c1ccccc21.O=[N+]([O-])c1cc([N+](=O)[O-])c(O)c([N+](=O)[O-])c1,inactive
5,CN(C(=O)Cc1ccc(Cl)c(Cl)c1)[C@H]1CC[C@@]2(CCCO2)C[C@@H]1N1CCCC1,inactive
6,O=[N+]([O-])c1ccc2c(c1)nnn2O,inactive
7,CN(C)C(=O)c1cc([N+](=O)[O-])cc2c1-c1c(cc([N+](=O)[O-])cc1[N+](=O)[O-])C2=O,inactive
8,O=C(OC1CN2CCC1CC2)c1ccc(Cl)cc1 (centres undefined),inactive
9,COc1ccccc1OP(C)(=O)Nc1cccc(Br)c1 (centres undefined),inactive
10,CS(=O)(=O)c1ccc(Cl)c(NC(=O)COC(=O)C(O)(c2ccccc2)c2ccccc2)c1,inactive
11,O=[As](O)(O)c1cccnc1,inactive
12,COc1cc(C(=O)NCC2(N3CCOCC3)CCCCC2)cc(Cl)c1OC(C)C,inactive
13,Cc1cc(C)cc(OP(C)(=O)Nc2ccc(C)cc2C)c1 (centres undefined),inactive
14,Cc1cccc(OCC(=O)OC2CN3CCC2CC3)c1 (centres undefined),inactive
15,O=[As](O)(c1cccc(O)c1)c1cccc(O)c1,inactive
16,CCOC(=O)c1ccc(NP(C)(=O)Oc2cc(C)cc(C)c2)cc1 (centres undefined),inactive
17,Cc1ccc(NCCc2c([N+](=O)[O-])cc([N+](=O)[O-])cc2[N+](=O)[O-])cc1,inactive
18,Nc1cccc2c([As](=O)(O)O)cccc12,inactive
19,Cc1cc(C)cc(OP(C)(=O)Nc2ccccn2)c1 (centres undefined),inactive
20,CP(=O)(Nc1cccc(Br)c1)Oc1ccccc1 (centres undefined),inactive
21,Cc1ccc(C)c(NP(C)(=O)Oc2ccccc2)c1 (centres undefined),inactive
22,CCCOP(=S)(Nc1nc(N)cc(=O)[nH]1)OCCC,inactive
23,CCOP(=O)(Nc1cccc2ccccc12)OCC,inactive
